Laboratory results reported in ChEMBL document CHEMBL3826956, “Cholinesterase inhibitory activity of isoquinoline alkaloids from three Cryptocarya species (Lauraceae)” (Bioorg Med Chem, 2016).

By UniProt entry, the sequences of proteins in these tests, tags left out. Where a name states a change or a piece, a line headed by the entry shows the natural chain unless it says otherwise.
UniProt O42275: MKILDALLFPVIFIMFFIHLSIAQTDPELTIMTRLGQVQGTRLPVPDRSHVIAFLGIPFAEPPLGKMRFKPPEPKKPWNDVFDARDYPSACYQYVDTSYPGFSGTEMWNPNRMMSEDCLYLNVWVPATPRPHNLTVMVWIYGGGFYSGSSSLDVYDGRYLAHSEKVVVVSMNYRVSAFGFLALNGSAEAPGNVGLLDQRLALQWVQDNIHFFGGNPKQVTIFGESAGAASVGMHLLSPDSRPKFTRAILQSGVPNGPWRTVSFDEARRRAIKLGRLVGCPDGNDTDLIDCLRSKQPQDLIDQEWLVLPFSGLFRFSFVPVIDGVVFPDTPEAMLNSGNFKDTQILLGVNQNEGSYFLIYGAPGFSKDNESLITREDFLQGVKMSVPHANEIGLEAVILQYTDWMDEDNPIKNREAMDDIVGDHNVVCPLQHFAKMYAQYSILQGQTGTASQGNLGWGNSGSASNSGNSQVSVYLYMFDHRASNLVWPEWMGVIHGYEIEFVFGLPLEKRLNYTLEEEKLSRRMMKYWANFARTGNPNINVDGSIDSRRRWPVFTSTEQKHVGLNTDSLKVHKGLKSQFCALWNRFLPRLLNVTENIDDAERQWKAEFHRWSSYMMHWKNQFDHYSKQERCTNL

Biological target: Acetylcholinesterase (Electrophorus electricus, UniProt O42275)
Assay: Inhibition of electric eel AChE preincubated for 15 mins followed by addition of acetylthiocholine iodide as substrate measured after 30 mins by Ellman's microplate assay

## CNC(=O)Oc1ccc2c(c1)[C@]1(C)CCN(C)[C@@H]1N2C [PHYSOSTIGMINE]
  IC50: 160 nM
